These are literature values, as cited in PMC4245237, “Searching the Cytochrome P450 Enzymes for the Metabolism of Meranzin Hydrate: A Prospective Antidepressant Originating from Chaihu-Shugan-San” (PLoS ONE, 2014).

pIC50, pKi: −log10 of the molar value. Structures can show the parent of a compound that is named as a salt.

In general, pIC50 refers to −log10 of the IC50, conventionally taken in molar units. The term pKi denotes the Ki on a negative log10 scale, so that one unit is a factor of ten.

In the series the target is T1, CYP2A6 (Homo sapiens, UniProt P11509).
T1 sequence (P11509 1-494): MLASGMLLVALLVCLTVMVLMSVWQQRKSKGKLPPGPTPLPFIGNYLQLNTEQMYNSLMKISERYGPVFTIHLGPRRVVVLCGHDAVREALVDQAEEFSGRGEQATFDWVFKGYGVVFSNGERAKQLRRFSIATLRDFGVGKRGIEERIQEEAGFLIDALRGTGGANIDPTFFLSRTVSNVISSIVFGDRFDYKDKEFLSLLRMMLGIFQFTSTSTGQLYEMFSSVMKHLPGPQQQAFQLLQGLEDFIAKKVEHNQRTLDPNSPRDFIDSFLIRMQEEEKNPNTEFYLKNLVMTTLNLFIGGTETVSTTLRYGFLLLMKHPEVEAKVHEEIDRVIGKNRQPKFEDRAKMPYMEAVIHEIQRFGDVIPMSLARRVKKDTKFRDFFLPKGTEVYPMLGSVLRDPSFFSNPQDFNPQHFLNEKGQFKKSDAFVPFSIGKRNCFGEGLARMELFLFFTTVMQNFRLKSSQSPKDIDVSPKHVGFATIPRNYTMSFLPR
Particulars: cited from earlier work.

In the case of `N[C@@H]1C[C@H]1c1ccccc1` (relative stereo) [TRA, trans-2-phenylcyclopropylamine hydrochloride], the pIC50 (read-out: IC50, specific inhibitor reported value) was 6.38. Besides, the pKi (read-out: Ki, specific inhibitor reported value) was 6.77.
